Test results reported in publication PMC10035370, “Targeting Tumor Angiogenesis with the Selective VEGFR-3 Inhibitor EVT801 in Combination with Cancer Immunotherapy” (Cancer Research Communications, 2022).

The chains behind the UniProt entries cited, without tags or fusion partners. Residues count along the entry.
UniProt P35968, 20-1356 limits assumed: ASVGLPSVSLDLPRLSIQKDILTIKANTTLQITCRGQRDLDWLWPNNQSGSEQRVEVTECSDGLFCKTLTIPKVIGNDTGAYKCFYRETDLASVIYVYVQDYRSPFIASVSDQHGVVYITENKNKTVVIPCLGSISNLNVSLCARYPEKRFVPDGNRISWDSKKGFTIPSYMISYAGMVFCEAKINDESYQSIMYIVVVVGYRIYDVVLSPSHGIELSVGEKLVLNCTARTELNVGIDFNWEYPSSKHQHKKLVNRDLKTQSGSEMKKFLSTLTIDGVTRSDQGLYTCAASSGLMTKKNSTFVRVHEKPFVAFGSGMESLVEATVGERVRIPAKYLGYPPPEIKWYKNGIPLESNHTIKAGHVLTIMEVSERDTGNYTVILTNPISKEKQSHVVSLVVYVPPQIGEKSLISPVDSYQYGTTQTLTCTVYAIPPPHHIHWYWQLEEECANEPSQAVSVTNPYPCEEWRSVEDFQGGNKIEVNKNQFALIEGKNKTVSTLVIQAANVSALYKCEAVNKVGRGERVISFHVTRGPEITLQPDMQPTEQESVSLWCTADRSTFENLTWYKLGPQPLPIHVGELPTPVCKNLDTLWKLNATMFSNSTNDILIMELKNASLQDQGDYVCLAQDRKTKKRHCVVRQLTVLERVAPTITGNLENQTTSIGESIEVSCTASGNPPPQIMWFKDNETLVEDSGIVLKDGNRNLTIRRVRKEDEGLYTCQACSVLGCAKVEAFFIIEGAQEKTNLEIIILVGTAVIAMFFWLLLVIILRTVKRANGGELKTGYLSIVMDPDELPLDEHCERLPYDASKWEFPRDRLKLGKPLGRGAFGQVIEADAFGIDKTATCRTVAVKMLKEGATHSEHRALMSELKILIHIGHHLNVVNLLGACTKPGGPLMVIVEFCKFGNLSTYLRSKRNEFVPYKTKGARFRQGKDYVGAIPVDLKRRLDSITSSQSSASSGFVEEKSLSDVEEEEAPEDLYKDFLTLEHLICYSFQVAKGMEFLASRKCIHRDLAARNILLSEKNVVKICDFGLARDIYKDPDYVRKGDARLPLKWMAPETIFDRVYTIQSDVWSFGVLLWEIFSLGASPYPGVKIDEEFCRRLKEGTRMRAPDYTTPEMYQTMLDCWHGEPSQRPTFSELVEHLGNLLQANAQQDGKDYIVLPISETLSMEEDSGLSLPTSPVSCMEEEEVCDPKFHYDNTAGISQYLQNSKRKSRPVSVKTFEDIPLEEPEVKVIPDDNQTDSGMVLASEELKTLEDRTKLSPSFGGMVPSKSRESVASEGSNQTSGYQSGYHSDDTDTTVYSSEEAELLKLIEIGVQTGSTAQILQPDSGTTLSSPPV
UniProt P35968, 834-1162 limits assumed: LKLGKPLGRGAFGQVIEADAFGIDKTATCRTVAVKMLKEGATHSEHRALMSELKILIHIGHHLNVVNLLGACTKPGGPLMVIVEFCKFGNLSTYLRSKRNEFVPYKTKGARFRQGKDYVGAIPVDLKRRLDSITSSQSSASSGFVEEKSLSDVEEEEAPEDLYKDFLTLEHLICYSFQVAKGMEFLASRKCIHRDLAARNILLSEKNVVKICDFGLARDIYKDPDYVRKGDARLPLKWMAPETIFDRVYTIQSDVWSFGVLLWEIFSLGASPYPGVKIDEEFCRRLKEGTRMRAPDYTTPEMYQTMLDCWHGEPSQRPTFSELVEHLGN
UniProt P17948, 27-1338 limits assumed: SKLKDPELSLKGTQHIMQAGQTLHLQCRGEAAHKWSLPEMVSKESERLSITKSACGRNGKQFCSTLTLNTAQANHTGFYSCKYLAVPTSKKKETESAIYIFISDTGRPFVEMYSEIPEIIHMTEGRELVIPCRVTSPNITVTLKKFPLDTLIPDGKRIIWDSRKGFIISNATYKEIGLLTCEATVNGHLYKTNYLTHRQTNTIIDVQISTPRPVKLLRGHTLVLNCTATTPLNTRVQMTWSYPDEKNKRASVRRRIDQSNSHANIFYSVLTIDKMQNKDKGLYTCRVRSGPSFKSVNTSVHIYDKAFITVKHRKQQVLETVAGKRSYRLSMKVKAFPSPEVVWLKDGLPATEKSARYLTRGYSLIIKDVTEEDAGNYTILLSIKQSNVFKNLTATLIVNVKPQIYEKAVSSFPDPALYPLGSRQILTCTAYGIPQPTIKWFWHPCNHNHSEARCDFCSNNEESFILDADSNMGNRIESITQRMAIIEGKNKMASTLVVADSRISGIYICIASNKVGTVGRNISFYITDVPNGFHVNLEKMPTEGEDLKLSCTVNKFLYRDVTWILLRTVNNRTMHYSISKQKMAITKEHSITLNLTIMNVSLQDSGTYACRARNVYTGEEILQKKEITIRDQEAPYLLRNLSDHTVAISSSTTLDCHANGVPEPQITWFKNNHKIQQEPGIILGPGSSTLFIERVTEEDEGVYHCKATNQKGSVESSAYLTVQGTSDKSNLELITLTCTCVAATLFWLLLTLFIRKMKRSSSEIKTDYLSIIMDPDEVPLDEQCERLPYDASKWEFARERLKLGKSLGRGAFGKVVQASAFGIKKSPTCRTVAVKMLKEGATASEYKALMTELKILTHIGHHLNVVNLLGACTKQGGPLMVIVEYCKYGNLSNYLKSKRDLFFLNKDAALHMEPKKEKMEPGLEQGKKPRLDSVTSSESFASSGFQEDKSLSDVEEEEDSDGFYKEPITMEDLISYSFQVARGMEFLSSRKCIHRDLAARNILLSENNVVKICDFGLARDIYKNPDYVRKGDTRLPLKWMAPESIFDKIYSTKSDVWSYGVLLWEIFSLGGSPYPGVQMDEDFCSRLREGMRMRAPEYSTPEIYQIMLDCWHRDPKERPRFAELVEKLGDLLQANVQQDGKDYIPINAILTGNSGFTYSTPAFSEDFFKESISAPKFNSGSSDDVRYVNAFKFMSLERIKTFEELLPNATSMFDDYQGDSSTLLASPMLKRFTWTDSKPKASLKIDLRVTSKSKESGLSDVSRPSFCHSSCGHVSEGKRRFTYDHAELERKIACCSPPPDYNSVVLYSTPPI
UniProt P17948, 827-1158 limits assumed: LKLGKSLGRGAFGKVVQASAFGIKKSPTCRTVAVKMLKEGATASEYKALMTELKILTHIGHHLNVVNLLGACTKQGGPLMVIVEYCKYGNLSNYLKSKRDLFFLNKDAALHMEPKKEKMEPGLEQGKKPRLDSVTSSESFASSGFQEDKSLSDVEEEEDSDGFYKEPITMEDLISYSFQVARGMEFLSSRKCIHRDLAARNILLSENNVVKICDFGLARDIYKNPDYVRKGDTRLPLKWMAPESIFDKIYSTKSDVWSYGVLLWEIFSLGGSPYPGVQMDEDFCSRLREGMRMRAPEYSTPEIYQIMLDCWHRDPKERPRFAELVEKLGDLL
UniProt P35916, 25-1363 limits assumed: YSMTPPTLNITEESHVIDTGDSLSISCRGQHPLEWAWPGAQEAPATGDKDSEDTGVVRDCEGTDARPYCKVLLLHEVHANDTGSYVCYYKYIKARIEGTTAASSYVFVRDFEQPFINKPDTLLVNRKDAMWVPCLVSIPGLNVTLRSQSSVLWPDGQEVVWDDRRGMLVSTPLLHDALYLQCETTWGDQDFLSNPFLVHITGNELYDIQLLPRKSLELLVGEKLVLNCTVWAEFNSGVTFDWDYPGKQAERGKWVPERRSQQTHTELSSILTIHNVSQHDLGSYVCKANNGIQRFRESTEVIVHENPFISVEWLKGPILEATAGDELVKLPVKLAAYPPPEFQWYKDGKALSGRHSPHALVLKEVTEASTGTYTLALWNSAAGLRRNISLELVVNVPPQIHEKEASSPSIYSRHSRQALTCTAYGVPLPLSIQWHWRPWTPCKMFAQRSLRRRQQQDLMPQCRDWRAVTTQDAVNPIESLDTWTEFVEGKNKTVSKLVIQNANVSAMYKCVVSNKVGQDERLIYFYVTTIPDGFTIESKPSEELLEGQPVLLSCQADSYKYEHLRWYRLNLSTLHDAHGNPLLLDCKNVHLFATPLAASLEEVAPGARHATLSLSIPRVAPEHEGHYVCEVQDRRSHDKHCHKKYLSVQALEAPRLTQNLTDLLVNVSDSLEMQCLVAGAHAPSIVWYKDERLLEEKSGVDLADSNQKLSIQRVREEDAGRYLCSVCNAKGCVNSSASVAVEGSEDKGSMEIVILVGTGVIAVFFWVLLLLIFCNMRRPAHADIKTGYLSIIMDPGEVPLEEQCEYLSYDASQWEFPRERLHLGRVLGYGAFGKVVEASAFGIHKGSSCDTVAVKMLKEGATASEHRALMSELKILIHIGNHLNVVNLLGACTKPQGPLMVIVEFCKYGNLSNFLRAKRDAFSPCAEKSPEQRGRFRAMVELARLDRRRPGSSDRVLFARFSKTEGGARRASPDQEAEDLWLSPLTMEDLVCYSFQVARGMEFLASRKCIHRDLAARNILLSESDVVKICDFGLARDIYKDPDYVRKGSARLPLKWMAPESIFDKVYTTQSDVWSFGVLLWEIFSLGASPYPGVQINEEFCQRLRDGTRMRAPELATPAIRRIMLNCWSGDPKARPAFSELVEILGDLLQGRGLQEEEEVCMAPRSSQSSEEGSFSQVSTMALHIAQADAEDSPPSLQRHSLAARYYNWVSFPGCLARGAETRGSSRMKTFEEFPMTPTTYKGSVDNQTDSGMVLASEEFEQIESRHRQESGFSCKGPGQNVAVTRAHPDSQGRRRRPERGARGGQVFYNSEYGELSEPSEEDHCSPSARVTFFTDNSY
UniProt P35916, 845-1173 limits assumed: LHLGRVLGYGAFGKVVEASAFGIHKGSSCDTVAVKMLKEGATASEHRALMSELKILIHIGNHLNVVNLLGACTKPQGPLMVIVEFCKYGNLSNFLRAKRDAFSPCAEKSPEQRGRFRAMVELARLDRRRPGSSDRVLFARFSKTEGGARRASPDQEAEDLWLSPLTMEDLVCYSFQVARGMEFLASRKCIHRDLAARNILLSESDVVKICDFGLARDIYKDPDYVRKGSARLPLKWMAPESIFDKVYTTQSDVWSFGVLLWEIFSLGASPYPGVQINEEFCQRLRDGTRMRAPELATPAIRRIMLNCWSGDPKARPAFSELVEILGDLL
UniProt Q91ZT1, 25-1363 limits assumed: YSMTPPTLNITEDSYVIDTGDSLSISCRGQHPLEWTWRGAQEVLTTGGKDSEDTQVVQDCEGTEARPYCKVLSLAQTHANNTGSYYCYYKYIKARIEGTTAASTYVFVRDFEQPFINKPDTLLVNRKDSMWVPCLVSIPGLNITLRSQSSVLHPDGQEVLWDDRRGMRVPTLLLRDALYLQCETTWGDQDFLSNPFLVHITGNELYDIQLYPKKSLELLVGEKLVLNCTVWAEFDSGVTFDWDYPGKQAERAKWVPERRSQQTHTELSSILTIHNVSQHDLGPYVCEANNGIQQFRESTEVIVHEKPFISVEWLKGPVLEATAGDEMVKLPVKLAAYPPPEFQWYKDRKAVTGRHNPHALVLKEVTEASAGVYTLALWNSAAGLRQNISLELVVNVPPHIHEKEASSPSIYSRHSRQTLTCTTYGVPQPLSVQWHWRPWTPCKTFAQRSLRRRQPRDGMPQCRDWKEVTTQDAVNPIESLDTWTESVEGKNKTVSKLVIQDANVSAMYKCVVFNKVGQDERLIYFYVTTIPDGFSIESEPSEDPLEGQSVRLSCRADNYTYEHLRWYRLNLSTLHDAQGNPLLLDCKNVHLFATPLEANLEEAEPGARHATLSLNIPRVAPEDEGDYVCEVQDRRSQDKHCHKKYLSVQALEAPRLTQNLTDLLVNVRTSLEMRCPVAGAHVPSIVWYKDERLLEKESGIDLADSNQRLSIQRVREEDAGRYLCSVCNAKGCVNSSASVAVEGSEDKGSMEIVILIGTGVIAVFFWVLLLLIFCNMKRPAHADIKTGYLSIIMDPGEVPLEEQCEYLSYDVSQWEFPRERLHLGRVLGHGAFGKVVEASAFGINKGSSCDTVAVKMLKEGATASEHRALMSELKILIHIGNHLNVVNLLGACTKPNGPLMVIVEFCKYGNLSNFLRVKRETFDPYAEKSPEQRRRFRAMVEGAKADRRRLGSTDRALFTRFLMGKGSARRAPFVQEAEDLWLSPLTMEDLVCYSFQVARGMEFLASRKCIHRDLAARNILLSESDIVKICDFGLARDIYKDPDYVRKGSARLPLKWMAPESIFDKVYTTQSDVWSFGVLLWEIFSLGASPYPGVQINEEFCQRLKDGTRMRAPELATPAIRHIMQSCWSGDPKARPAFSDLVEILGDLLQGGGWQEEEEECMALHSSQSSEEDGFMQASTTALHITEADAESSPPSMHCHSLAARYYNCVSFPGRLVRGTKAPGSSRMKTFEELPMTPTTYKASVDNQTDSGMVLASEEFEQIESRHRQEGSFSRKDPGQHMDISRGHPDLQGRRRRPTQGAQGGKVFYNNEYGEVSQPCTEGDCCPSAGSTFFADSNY

Experiments:
[1] = tested on: VEGFR-3; assay: Cellular VEGFR-3 autophosphorylation assay, dog receptor; settings: read-out: VEGFR-3 autophosphorylation, Cellular assay
Experimental: (§1) Transfection of HEK293T cells and Ba/F3 cells with VEGFR-1-Flag, VEGFR-2-Flag or VEGFR-3-Flag expression constructs was performed using Fugene-6 (Roche) as per manufacturer’s protocol. Briefly, Fugene-6 was pre-incubated with Opti-Mem (Gibco) before adding DNA. After 24 h, media was replaced with serum-free culture media containing 0.2 % BSA. On the next day, cells were incubated for 1 h in 1 mM orthovanadate, harvested, dissociated and distributed at 4 x 10^5 cells in 5 mL for HEK-VEGFR-1 and HEK-VEGFR-3, and 5 x 10^4 cells per 5 mL for HEK VEGFR-2 in the presence of EVT801 or SAR401849. After 30 min, the reaction was stopped by the addition of cold PBS supplemented with 1 mM orthovanadate. Cells were then lysed with 150 μl of RIPA buffer for 15 min at 4°C, then centrifuged for 10 min at 10,000 g. Supernatants (75 μl) were distributed in duplicate on 96 well plates that were precoated with the anti-flag, and left for 1 h at room temperature. After 3 washes, the anti-phosphotyrosine conjugated to the HRP was added and incubated for 1 h at room temperature. Wells were then washed 3 times with TBS buffer containing 0.5 % Tween-20 and 2 mM MgCl2. The reaction was stopped with 50 μL of 2 N H2SO4, and the signal was read with Envision at the wavelengths of 485 nm and 530 nm.

[2] = target: T1, VEGFR2 (Homo sapiens, UniProt P35968); assay: Biochemical kinase assay (in vitro assay), VEGFR-2; settings: read-out: VEGFR-2 autophosphorylation, In vitro assay
Experimental: (§2) Sigma protein kinase assay kits were used. 125 μL per well of Poly-Glu-Tyr (PGT) solution (250 μg/mL of PGT in PBS without Ca^2+, Mg^2+ and sodium bicarbonate) was added in a 96-well plate and overnight incubation was performed at 37 °C. The day after, coating solution was removed and wells were washed with 300 μL of PBS-Tween-20 0.05 %. The washing buffer was removed and wells were dried for 2 h at 37 °C. 90 μL of the kinase buffer was supplemented with ATP (30 μM for VEGFR-1 and VEGFR-3, and 15 μM for VEGFR-2), and the compound (EVT801 or SAR401849 at the indicated concentration or 1 % DMSO for the vehicle control). The phosphorylation reaction was initiated by the addition of 20 μL of kinase buffer without ATP supplemented with 100 ng of the tyrosine kinase (or without tyrosine kinase as control). Plates were incubated with gentle agitation at room temperature for 30 min. After 3 washes with 300 μL of washing buffer, 100 μL of phosphotyrosine specific monoclonal antibody conjugated to HRP (1:30,000) was added onto the phosphorylated PGT. Plates were incubated for 30 min at room temperature under gentle agitation. Then, 3 washes with 300 μL of washing buffer were performed. […] After 7 min at room temperature, the reaction was stopped by addition of 100 μL of […], and absorbance was determined with an Endvision spectrophotometer at 492 nm.

[3] = target: T2, VEGFR1 (Homo sapiens, UniProt P17948); assay: Internal kinase panel, VEGFR1; settings: inhibition at 1 µM; 48 or 60 kinase panel
Experimental: (§3) Recombinant human proteins from different vendors (Carna Bio, Millipore, Invitrogen) were suspended in phosphate buffer, pH 7.4 containing 1 mM DTT and pre-incubated with EVT801 or SAR401849 for 15 min. Then, substrate and ATP were added (final concentrations of 1.5 µM and equal to Km), the mixture incubated for 90 min at 28 °C. After incubation, 25 µL ADP-Glo reagent (Promega) was added to the reactions, and incubated at room temperature for 40 min. Then, 50 µL of kinase detection reagent was added and incubated for 40 min. Subsequently, the reaction was stopped with EDTA, and luminescence was recorded and IC50 values were determined.

[4] = target: T2, VEGFR1; assay: Cellular autophosphorylation assay, HEK293 cells transiently expressing VEGFR-1
Experimental: as §1

[5] = target: AuroraB (Homo sapiens, UniProt Q96GD4); assay: Internal kinase panel, AuroraB; settings: inhibition at 1 µM; 48 or 60 kinase panel
Experimental: as §3

[6] = target: LRRK2 (Homo sapiens, UniProt Q5S007); assay: Internal kinase panel, LRRK2; settings: inhibition at 1 µM; 48 or 60 kinase panel
Experimental: as §3

[7] = target: T1, VEGFR2; assay: Viability of Ba/F3 cells dependent on VEGFR-2; settings: read-out: IC50, VEGFR-2-dependent viability
Experimental: (§4) Ba/F3 cells were transduced and selected to stably express fusion proteins consisting of constructs for IL-3 independent survival and either VEGFR-2 or VEGFR-3 kinase domains or without the kinase domain. Proliferation and survival of cell lines was dependent on expression of the transcript. Cells in logarithmic-phase growth were harvested and 5 x 10^3 cells were distributed into each well of a 384-well plate in 50 µL of medium. Then, 50 nL of EVT801, SAR401849 or their vehicle solvent were added to appropriate wells. After 48 h, viability was determined by addition of 10 µL CellTiterGlo reagent (Promega). Luminescence was determined as relative light units (RLU) in counts per second.

[8] = target: T3, VEGFR-3 (Homo sapiens, UniProt P35916); assay: Biochemical kinase assay (in vitro assay), VEGFR-3; settings: read-out: VEGFR-3 autophosphorylation, In vitro assay
Experimental: as §2

[9] = target: T3, VEGFR-3; assay: Viability of Ba/F3 cells dependent on VEGFR-3; settings: read-out: IC50, VEGFR-3-dependent viability
Experimental: as §4

[10] = target: T2, VEGFR1; assay: Biochemical kinase assay (in vitro assay), VEGFR-1; settings: read-out: VEGFR-1 autophosphorylation, In vitro assay
Experimental: as §2

[11] = target: T1, VEGFR2; assay: Cellular autophosphorylation assay, HEK293 cells transiently expressing VEGFR-2; settings: read-out: VEGFR-2 autophosphorylation, Cellular assay
Experimental: as §1

[12] = target: T1, VEGFR2; assay: Internal kinase panel, VEGFR2; settings: inhibition at 1 µM; 48 or 60 kinase panel
Experimental: as §3

[13] = target: VEGFR-3 (Rattus norvegicus, UniProt Q91ZT1); assay: Cellular VEGFR-3 autophosphorylation assay, rat receptor; settings: read-out: VEGFR-3 autophosphorylation, Cellular assay
Experimental: as §1

[14] = target: VEGFR-3 (Mus musculus, UniProt P35917); assay: Cellular VEGFR-3 autophosphorylation assay, mouse receptor; settings: read-out: VEGFR-3 autophosphorylation, Cellular assay
Experimental: as §1

[15] = tested on: Ion channels, 7 targets; assay: Ion channels panel; settings: concentration of 1 µM
[16] = target: T3, VEGFR-3; assay: Cellular autophosphorylation assay, HEK293 cells transiently expressing VEGFR-3; settings: read-out: VEGFR-3 autophosphorylation, Cellular assay
Experimental: as §1

[17] = target: VEGFR-3 (Macaca fascicularis, UniProt A0A2K5X6S1); assay: Cellular VEGFR-3 autophosphorylation assay, monkey receptor; type: cell-based; settings: read-out: VEGFR-3 autophosphorylation, Cellular assay
Experimental: as §1

[18] = tested on: 107 targets; assay: CEREP selectivity panel
[19] = Pharmacokinetics in mice; settings: SCID mice with tumor
Experimental: Plasma samples and tumor homogenates were mixed with the precipitant solution (acetonitrile containing internal standard). The supernatant (180 µL) was transferred in a 96-well plate and 5 µL were injected. EVT801 and its main metabolite were quantified by LC-MS/MS following standard conditions.
Quality control (QC) samples and calibration samples were prepared daily by spiking mouse plasma and tumor homogenates with working solutions prepared from independent weighing. The calibration curve was calculated from calibration levels at 1, 2.5, 5, 10, 25, 50, 100, 200, 500, 1000 and 2000 ng/mL. A variation of ± 20 % versus the nominal concentrations was used as criteria for qualification of samples; at least 75 % of all standards needed to be within this window, and at least 6 concentration values within tis window were used for quantification. The concentrations for QC samples were 5, 50, 150, 450 and 1500 ng/mL. At least 66 % of all QC samples, and at least 50 % of QC samples at a given concentration were within the ± 20 % window. Quadratic regressions were applied, not forced through the origin, and weighted by 1/x (with R^2 > 0.98). The lower limit of quantification for both compounds was set to 1 ng/mL for plasma and to 3 ng/g for tumor samples.

CCn1c(N)c(-c2ncc[nH]2)c(=O)c2ccc(C#C[C@@](C)(O)CO)nc21
IC50 [1]: 44.7 nM | IC50 [2]: 244 nM | Selectivity, inhibition of VEGFR1 [3]: 61% | maximum inhibition of VEGFR-1 ([4]; HEK293T cellular autophosphorylation assay): below 50% | IC50 ([4]; read-out: VEGFR-1 autophosphorylation, Cellular assay, Human): 2270 nM | Selectivity, inhibition of AuroraB [5]: 50% | Selectivity, inhibition of LRRK2 [6]: 54% | IC50 [7]: 398 nM | IC50 [8]: 19.7 nM | IC50 [9]: 32 nM | IC50 [10]: 823 nM | IC50 [11]: 210 nM | Selectivity, inhibition of VEGFR2 [12]: 90% | IC50 [13]: 91.4 nM | IC50 [14]: 63 nM | Ion channels, effect [15]: No effect | IC50 [16]: 32.4 nM | IC50 [17]: 34.2 nM | Selectivity, CEREP targets with > 80 % inhibition at 10 µM [18]: A3 A2a A1 PDE3A ^b | T1/2 in plasma ([19]; 10 mg/kg for 2 weeks): 2.6 h | T1/2 in plasma ([19]; 30 mg/kg for 2 weeks): 1.8 h
